What follows are molecules tested on C5a anaphylatoxin chemotactic receptor 1 (Cavia porcellus) (assay: Tested for pharmacological activity against C5a receptor in Guinea pig lung parenchyma).
CSCC[C@H](NC(=O)[C@H](CC(=O)O)NC(=O)[C@H](CCCCN)NC(=O)[C@H](Cc1ccccc1)NC(=O)[C@H](CO)NC(=O)[C@@H](N)Cc1ccc(O)cc1)C(=O)N[C@@H](CCC(N)=O)C(=O)N[C@@H](CC(C)C)C(=O)NCC(=O)N[C@@H](CCCN=C(N)N)C(=O)O was tested, and the pD2 was 4.56.
In the case of CC(C)C[C@H](NC(=O)CNC(=O)[C@H](CCCCN)NC(=O)[C@H](Cc1ccccc1)NC(=O)[C@H](CO)NC(=O)[C@@H](N)Cc1ccc(O)cc1)C(=O)N[C@@H](CC(C)C)C(=O)N[C@@H](CC(C)C)C(=O)NCC(=O)N[C@@H](CCCN=C(N)N)C(=O)O, the pD2 is reported as 4.7.
CSCC[C@H](NC(=O)[C@H](CC(=O)O)NC(=O)[C@H](CCCCN)NC(=O)[C@H](Cc1ccccc1)NC(=O)[C@H](CO)NC(=O)[C@@H](N)Cc1ccc(O)cc1)C(=O)N1CCC[C@H]1C(=O)N[C@@H](CC(C)C)C(=O)NCC(=O)N[C@@H](CCCN=C(N)N)C(=O)O showed a pD2 of 5.15.

Reference: ChEMBL document CHEMBL1127469, “Decapeptide agonists of human C5a: the relationship between conformation and spasmogenic and platelet aggregatory activities” (J Med Chem, 1994)
